Laboratory results as given in PubChem BioAssay (Tox21).
“And” between values parts separate entries of the source, which are not always exact repeats. Equal values may be shown once. This is a selection; strong and weak results do not stand in their true shares. More than one record can exist for a structure, and the calls need not agree. Where a call stands in place of a potency, no number is given. The source made the active and inactive calls. Calls follow the shape of the full dose curve.

Test: G protein-coupled receptor (GPCR) small molecule agonists, calcium flux assay: HEK293 wild type cell line counter screen (AID 1920065)
Conditions: HEK293 WT calcium flux, fluorescence, agonist mode; series mostly up to 57.6 µM
Text: U.S. Tox21 Program National Center for Advancing Translational Sciences [NCATS] Division of Preclinical Innovation [DPI] U.S. Environmental Protection Agency [EPA] National Institutes of Environmental Health Sciences [NIEHS] National Toxicology Program [NTP] U.S. Food and Drug Administration [FDA] Assay overview: The increased intracellular calcium release that occurred upon G protein-coupled receptor (GPCR) activation led to the frequent use of calcium flux assays to detect GPCR activation. For the purpose of studying and screening compounds that may activate GPCR, receptor-overexpressing models were typically generated using Hek293 wild-type (WT) cells. In order to eliminate the compounds that may have induced calcium release for non-specific activation, a counter-assay utilizing calcium flux on Hek293 WT cells was performed. The data were formulated in order to serve as a control for any calcium flux detection utilizing Hek293 cells with either GPCR overexpression or gene modification. The procurement of Hek293 WT cells from ATCC. Fluorescence intensity can be utilized to determine the activation of the compound in a calcium flux assay. As a counter control, this cell line was utilized to screen the Tox21 10K compound library.
Assay Protocol Summary: Hek293 cells were dispensed at 1500cells/4uL/well in 1536-well black wall/clear bottom plates using a multidrop dispenser. After the assay plates were incubated at a 37 C/5% CO2 incubator for 18 hours, 4 uL of Calcium Dye Solution was added to each well. The plates were incubated at 37 C for 1 hour. For agonist mode, 23 nL of compounds dissolved in DMSO, positive control (ATP) or DMSO only was transferred to the assay plate by a pin tool station. The fluorescence intensity in the plates was measured using FDSS 7000EX kinetic plate reader with a filter set of Ex/Em=480/540 for 3 min at 1 sec intervals. Each test compound was measured at 15 concentrations and in triplicates.
Potency is read from the fitted curve at half-maximal effect.

Row | Structure (SMILES) | Potency | activation
1 | O=C1C2CC=CCC2C(=O)N1SC(Cl)(Cl)C(Cl)Cl (centres undefined) | inactive and active: 38.9 µM | 
2 | O=[N+]([O-])c1ccc(S(=O)(=O)O)c([N+](=O)[O-])c1 | inactive | 
3 | O=[N+]([O-])c1ccc([N+](=O)[O-])cc1 | inactive | 
4 | CCCCOP(OCCCC)OCCCC | inactive | 
5 | COP(=S)(Cl)OC | inactive | 
6 | CC(C)CCCCCCCOP(OCCCCCCCC(C)C)Oc1ccccc1 | inactive | 
7 | O=C(Cl)Oc1ccccc1 | inactive | 
8 | CCOP(=S)(CC)Sc1ccccc1 (centres undefined) | inactive | 
9 | CCCCC(CC)CO[P+](=O)OCC(CC)CCCC (centres undefined) | inactive | 
10 | CC(C)OP(=S)(OC(C)C)SCCNS(=O)(=O)c1ccccc1 | inactive | 
11 | CN(C(=O)Cc1ccccc1)[C@H]1CC[C@@]2(CCCO2)C[C@@H]1N1CCCC1 | inactive | 
12 | O=[P+](Oc1ccccc1)Oc1ccccc1 | inactive | 
13 | O=[p+]1oc2ccccc2c2ccccc21 (centres undefined) | inactive | 
14 | O=P(Cl)(Oc1ccccc1)Oc1ccccc1 | inactive | 
15 | CN(C(=O)Cc1cccc2occc12)[C@H]1CC[C@@]2(CCCO2)C[C@@H]1N1CCCC1 | inactive | 
16 | CCCCO[P+](=O)OCCCC | inactive | 
17 | CCCCCCCCCCCCCC[P+](CCCCCC)(CCCCCC)CCCCCC | inactive | 
18 | CCNC(C)Cc1ccc2c(c1)OCO2 (centres undefined) | inactive | 
19 | CCC(C)(OOC(C)(C)C)OOC(C)(C)C |  | inactive: 0.47% [at 11.8 µM]
20 | O=P(Cl)(Cl)c1ccccc1 | inactive | 
21 | O=C(Cl)OCCOC(=O)Cl | inactive | 
22 | N#CSc1ccc([N+](=O)[O-])cc1[N+](=O)[O-] | inactive | 
23 | COC(=O)Cl | inactive | 
24 | CN(N=O)C(=N)N[N+](=O)[O-] | inactive | 
25 | CCOC(=O)Cl | inactive | 
26 | NC(=O)Nc1ccc([As](=O)(O)O)cc1 | inactive | 
27 | ClP(Cl)c1ccccc1 | inactive | 
28 | Cc1cc([N+](=O)[O-])c(O)c([N+](=O)[O-])c1 | inactive | 
29 | CN(C(=O)Cc1ccc(Cl)c(Cl)c1)[C@H]1CC[C@@]2(CCCO2)C[C@@H]1N1CCCC1 | inactive | 
